From US11787780B2 (CORCEPT THERAPEUTICS INCORPORATED, priority 2020, dated 2023)

Chains of the proteins cited; added tags and fusions are not shown. Residues count along the entry.
UniProt P04150, 524-758 limits assumed: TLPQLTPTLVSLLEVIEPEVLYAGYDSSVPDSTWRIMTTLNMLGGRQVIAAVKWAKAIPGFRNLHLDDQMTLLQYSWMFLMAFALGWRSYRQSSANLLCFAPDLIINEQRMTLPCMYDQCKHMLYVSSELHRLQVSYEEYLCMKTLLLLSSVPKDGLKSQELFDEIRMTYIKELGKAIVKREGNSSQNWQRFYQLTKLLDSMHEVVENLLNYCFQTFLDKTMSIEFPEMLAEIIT

Assays:
[1] = target: glucocorticoid receptor (GR) recombinant ligand binding domain (LBD) (Homo sapiens (Human), UniProt P04150); test: GR binding fluorescence polarisation (FP) assay; details: read-out: Mean GR Binding IC50, displacement of fluorescently tagged ligand
[2] = test system: induction of TAT by dexamethasone in HepG2 cells; test: Hep G2 TAT assay (inhibition of dexamethasone-induced TAT); details: read-out: Hep G2 TAT Ki, challenge of 100 nM dexamethasone, IC50 converted to Ki by Cheng and Prusoff equation

In the case of `CCCn1ncc(S(=O)(=O)N2CCN(c3ccc4c(cnn4-c4ccc(F)cc4)c3)C[C@H]2C)c1C`, the IC50 [1] is reported as 80 nM and the Ki [2] is reported as 1290 nM.
